Reference: US6323340A, “Phthalocyanine compound, method for production thereof, and near infrared absorption dye using the compound” (Nippon Shobukai Co., Ltd., priority 1999, dated 2001)

Assays:
[1] = solubility in toluene and methylethyl ketone at room temperature; conditions: 25° C.; for Solubility MEK: methylethyl ketone
[2] = maximum absorption wavelength and absorptivity coefficient in toluene (spectrophotometer); assay type: physicochemical
Protocol: By the use of a spectrophotometer (Shimadzu Seisakusho Ltd., UV-3100), the phthalocyanine compound obtained in this example [VOPc(2,5-Cl2 PhO)8 (2,6-Br2 -4-CH3 PhO)4 {Ph(CH3)CHNH}3 F] was tested for the maximum absorption wavelength and the absorptivity coefficient in toluene.

[3] = transmittance to the visible ray of chloroform solution (JIS R3106); assay type: physicochemical; conditions: 1 cm quartz cell, lowest transmittance at 750 to 1050 nm set to 5 to 6%
[4] = in CH2Cl2

Substance | Solubility MEK [1] | Solubility Toluene [1] | Maximum Absorption Wavelength [2] [nm] | Transmittance to Visible Ray [3] [%] | λmax [4] [cm⁻¹]
octafluoro-octakisanilino oxyvanadium phthalocyanine [Control 2, reference compound] | .circleincircle. (a solubility of not less than 5% by weight) | .circleincircle. (a solubility of not less than 5% by weight) |  |  | 
penta(4-methoxyphenylamino)deca(4-methylphenylthio) copper phthalocyanine [Control 3] | .largecircle. | .circleincircle. (a solubility of not less than 5% by weight) | 849 | 61 | 860
